Literature values in article PMC12181400, “Leveraging viral genome sequences and machine learning models for identification of potentially selective antiviral agents” (Communications Chemistry, 2025).

Legend:
Conditions in all cases: cited from earlier work
[1] = system: cell viability (tox21-ar-mda-kb2-luc-antagonist-p2)
[2] = system: cell viability (tox21-ar-mda-kb2-luc-agonist-p3)
[3] = system: cell viability (tox21-are-bla-p1)
[4] = system: cell viability (tox21-ap1-agonist-p1)
[5] = system: cell viability (tox21-car-agonist-p1)

CCC(C)(CN(C)C)OC(=O)c1ccccc1.Cl (centres unmarked) [Amylocaine hydrochloride]
0: tox21-ar-mda-kb2-luc-antagonist-p2-viability (curve rank) [1] | tox21-ar-mda-kb2-luc-agonist-p3-viability (curve rank) [2] | tox21-are-bla-p1-viability (curve rank) [3] | tox21-ap1-agonist-p1-viability (curve rank) [4] | tox21-car-agonist-p1-viability (curve rank) [5]
